Target: T1, CCK2R (Rattus norvegicus, UniProt P30553)
T1 construct: endogenous in cells; host or cells: AR42J cells
T1 sequence (P30553 1-452): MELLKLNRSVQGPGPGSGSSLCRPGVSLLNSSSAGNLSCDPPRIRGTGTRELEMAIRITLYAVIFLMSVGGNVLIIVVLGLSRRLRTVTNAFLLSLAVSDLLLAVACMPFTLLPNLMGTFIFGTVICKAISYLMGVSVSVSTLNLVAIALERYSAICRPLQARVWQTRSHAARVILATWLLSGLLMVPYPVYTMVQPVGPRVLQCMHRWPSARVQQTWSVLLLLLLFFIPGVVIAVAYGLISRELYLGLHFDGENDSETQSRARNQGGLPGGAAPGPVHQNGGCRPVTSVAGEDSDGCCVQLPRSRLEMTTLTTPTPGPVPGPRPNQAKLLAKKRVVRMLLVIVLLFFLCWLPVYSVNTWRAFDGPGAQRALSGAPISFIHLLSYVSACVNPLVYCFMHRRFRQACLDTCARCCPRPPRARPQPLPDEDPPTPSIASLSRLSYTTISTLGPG
Test: Displacement of 125I-BH-CCK8 binding to AR42J cells
Description: FIGS. 8A-8C show binding of ^125I-rhPG and ^125I-BH-CCK8 to a pancreatic cancer cell line, AR42J and intestinal epithelial cells (IEC). Cells were incubated with the indicated radio labeled ligand in the presence or absence of increasing concentrations of either CCK8, G17 or rhPG. The relative binding affinity of the gastrin like peptides for the specific binding sites for rhPG (FIGS. 8A and B) (Annexin II) and CCK8 (FIG. 8C) to CCK2R was calculated. Data in each point represents the mean values of triplicate measurements from a single experiment and is representative of 2 similar experiments. The intra-experimental variation for each data point was <5-10%. […]
In order to define the RBA of various peptides for the PG binding sites on the cells, cells in suspension were incubated with 1.0 nM ^125I-rhPG in the presence or absence of increasing concentrations (0.1 nM-10.0 μM) of either the homologous or heterologous peptide. Non-specific binding was determined in the presence of 1000× excess of the non-labeled homologous peptide. […] Cell pellets were counted for ^125I in a gamma counter with ˜70% efficiency for ^125I. The RBA of gastrin-like peptides and/or competing peptides for binding the specific binding sites for rhPG were determined from a log-dose inhibition of specific binding of ^125I-rhPG by various peptides as described previously (Singh et al, 1995). […]

| Substance | displacement of binding of 125I-BH-CCK8 to CCK2R |
| --- | --- |
| CCK: cholecystokinin (CCK-8), amidated peptide closely related to gastrin | completely displaced |
| G17: 17 amino acid C-terminally amidated gastrin peptide (QGPWLEEEEEAYGWMDF) | completely displaced |

Source: patent US10335470B2, “Immunogenic compositions comprising progastrin and uses thereof” (Board of Regents, The University of Texas System, priority 2006, dated 2019)
